Results taken from ChEMBL document CHEMBL5357010, “Amine Basicity of Quinoline ATP Synthase Inhibitors Drives Antibacterial Activity against Pseudomonas aeruginosa” (ACS Med Chem Lett, 2024).

Test: Selectivity ratio of IC50 for Pseudomonas aeruginosa 9027 electron transport chain to IC50 for Pseudomonas aeruginosa ATP synthase
Type: toxicity

For c1ccc(CSc2nc3ccccc3cc2CNCCc2cnc[nH]2)cc1, the “Ratio IC50” value was 7.
